{
  "source": "patent US6517864B1",
  "about": "(Pharmacia AB, priority 1998, dated 2003)",
  "key": {"rabbit skin": {"tested_on": "rabbit skin", "test": "Primary skin irritation study in the rabbit, drug substances, 24 hours exposure", "type": "in vivo", "details": "for mean score for erythema / mean score for oedema: 0.5 g, read 1, 24, 48 and 72 hours after", "protocol": "Primary skin irritation study in the rabbit and test for delayed contact hypersensitivity using the Guinea Pig Maximization Test (performed by Scantox, Denmark).\n0.5 g of each test material were moistened with 0.5 ml distilled water and applied on the rabbit. After 24 hours the treated skin was cleaned and after additional 1, 24, 48 and 72 hours the skin reactions were read."}, "[1]": {"details": "poor metabolizer, after tolterodine 2 mg bid; cited from earlier work"}},
  "data": [
    {"substance": "N,N-dilso-propyl-3′-(2-hydroxy-5-methylphenyl)-3-phenylpropanamine [Tolterodine]", "values": [
      {"measurement": "classification as skin irritant", "setting": "rabbit skin", "result": "should not be classified as skin irritants"},
      {"measurement": "mean score for erythema", "setting": "rabbit skin", "result": 0.1},
      {"measurement": "mean score for oedema", "setting": "rabbit skin", "result": 0.0},
      {"measurement": "average serum concentration (C)", "setting": "[1]", "result": "about 10 μg/L"}
    ]},
    {"substance": "tolterodine L-tartrate", "values": [
      {"measurement": "classification as skin irritant", "setting": "rabbit skin", "result": "should not be classified as skin irritants"},
      {"measurement": "mean score for erythema", "setting": "rabbit skin", "result": 0.0},
      {"measurement": "mean score for oedema", "setting": "rabbit skin", "result": 0.0}
    ]}
  ]
}
